Data: publication PMC3189208 (PLoS ONE, 2011)

Amino acid sequences for entries named in this document (tags omitted).
UniProt P35372, whole entry, looked up: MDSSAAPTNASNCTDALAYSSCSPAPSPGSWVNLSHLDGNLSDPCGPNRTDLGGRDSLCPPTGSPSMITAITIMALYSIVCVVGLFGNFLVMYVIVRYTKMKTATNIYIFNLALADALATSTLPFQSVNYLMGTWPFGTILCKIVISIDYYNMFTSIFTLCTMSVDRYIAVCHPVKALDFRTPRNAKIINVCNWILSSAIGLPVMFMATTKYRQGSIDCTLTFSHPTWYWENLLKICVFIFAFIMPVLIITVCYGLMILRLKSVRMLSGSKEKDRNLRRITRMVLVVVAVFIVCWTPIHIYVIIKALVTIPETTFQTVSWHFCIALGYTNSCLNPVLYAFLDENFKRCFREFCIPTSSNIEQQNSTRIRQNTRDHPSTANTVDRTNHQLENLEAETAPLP

Target: human mu opioid receptor (MOR1) in HEK-MOR cells (Homo sapiens, UniProt P35372)
Experiment: whole cell cAMP assay compared with DMR
Type: cell-based
Settings: ligand 10 µM, deviation from linear correlation

CN(C(=O)Cc1ccc(Cl)c(Cl)c1)[C@H](CN1CCCC1)c1ccccc1 [ICI 199,441]
bias between DMR response and whole cell cAMP response: biased towards cAMP
